## scFv variants of Ab-91 (heavy chain) against a SARS-CoV-2 spike peptide

Data: MIT Lincoln Laboratory AlphaSeq set, Engelhart et al. 2022, doi:10.1038/s41597-022-01779-4, as distributed in FLAb.

Target peptide (SARS-CoV-2 spike, HR2 region): PDVDLGDISGINAS

Parent: Ab-91, a human scFv built as VL, a 15-residue (Gly4Ser)3 linker, VH. Only the CDRs of the heavy chain vary.
VL: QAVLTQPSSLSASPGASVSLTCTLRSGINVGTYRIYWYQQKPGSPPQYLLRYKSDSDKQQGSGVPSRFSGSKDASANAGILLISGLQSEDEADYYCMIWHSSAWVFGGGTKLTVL
VH: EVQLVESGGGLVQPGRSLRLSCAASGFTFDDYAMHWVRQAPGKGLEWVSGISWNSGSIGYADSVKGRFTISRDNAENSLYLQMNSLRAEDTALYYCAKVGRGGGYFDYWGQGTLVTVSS

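The library (AAYL51) carries one to three amino acid substitutions per variant, with no insertions or deletions. The scFvs were displayed on barcoded MATa yeast, the peptide on MATalpha yeast. Mating (16 h, 30 °C) was followed by selection of diploids and sequencing of their barcodes. A regression on co-assayed BCL2-family reference pairs converts the normalised counts of each replicate to an apparent Kd. Each pool was mated in three replicate cultures.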

The whole VH of each variant is written out. This list gathers variants with a substitution at A61 (VH, numbered from residue 1). Values are log10 of the apparent Kd in nM; lower means stronger binding. Where no diploid with the target was found in that replicate, the entry reads "nd": below detection, most likely a poor binder, though not proof of it. In this assay the parent's reference entry averaged 1.86; its copy inside this library read 0.88. Empty control strains, which show no peptide, gave a signal in 21% of pairings with library AAYL51; the median was 4.54 and 95% of these signals were weaker than 3.26. No background was subtracted.

Variant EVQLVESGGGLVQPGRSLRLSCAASGFTFDDYAMHWVRQAPGKGLEWVSGISWNFGSIGYNDSVKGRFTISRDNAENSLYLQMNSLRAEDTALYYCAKVGRGGGYFDGWGQGTLVTVSS gave 6.05, nd, 4.83.
Variant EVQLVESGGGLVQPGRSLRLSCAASGFTFCDYAMHWVRQAPGKGLEWVSGISWNSGSIGYVDSVKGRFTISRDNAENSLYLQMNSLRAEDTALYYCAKVGRGSGYFDYWGQGTLVTVSS gave 4.46, 4.82, 4.69.
Variant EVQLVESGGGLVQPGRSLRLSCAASGFTFDDYAMHWVRQAPGKGLEWVSGISWNSGSIGYFDSVKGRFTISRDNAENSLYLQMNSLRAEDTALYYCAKVGRGGGYRDYWGQGTLVTVSS gave 5.62, 3.26, nd.
Variant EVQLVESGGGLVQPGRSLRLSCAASGFTFDDYTMHWVRQAPGKGLEWVSGISWNSGSNGYYDSVKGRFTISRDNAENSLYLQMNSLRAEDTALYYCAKVGRGGGYFDYWGQGTLVTVSS gave nd, nd, nd.
Variant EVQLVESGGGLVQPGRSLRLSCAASGFTFDDYAMHWVRQAPGKGLEWVSGISMNSGSIGYLDSVKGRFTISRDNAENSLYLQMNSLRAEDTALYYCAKVGRQGGYFDYWGQGTLVTVSS gave 3.78, 4.44, 3.90.
Variant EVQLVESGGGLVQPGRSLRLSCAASGFTFDDYAMHWVRQAPGKGLEWVSGWSWNSGSIGYHDSVTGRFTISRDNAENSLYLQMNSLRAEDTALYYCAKVGRGGGYFDYWGQGTLVTVSS gave nd, nd, nd.
Variant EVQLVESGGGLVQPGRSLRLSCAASGFTMDDYAMHWVRQAPGKGLEWVSGISWNSGSIGMWDSVKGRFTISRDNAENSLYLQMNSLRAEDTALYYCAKVGRGGGYFDYWGQGTLVTVSS gave nd, nd, nd.
Variant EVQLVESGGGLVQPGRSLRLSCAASGFTFDDYAMHWVRQAPGKGLEWVSGISWNSGSIGYGDSVKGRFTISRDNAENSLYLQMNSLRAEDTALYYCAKVGWGGGYFDYWGQGTLVTVSS gave 2.11, 2.25, 2.08.
Variant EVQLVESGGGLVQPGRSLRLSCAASGITFDDYAMYWVRQAPGKGLEWVSGISWNSGSIGYKDSVKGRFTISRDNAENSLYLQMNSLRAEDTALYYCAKVGRGGGYFDYWGQGTLVTVSS gave nd, nd, nd.
Variant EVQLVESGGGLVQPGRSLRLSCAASGFTFDDYANHWVRQAPGKGLEWVSGISWNSGSIGYLDSVKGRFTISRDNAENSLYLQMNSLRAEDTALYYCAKVGRKGGYFDYWGQGTLVTVSS gave 4.58, nd, 3.99.
Variant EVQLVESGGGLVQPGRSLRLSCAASGTTFDDYAQHWVRQAPGKGLEWVSGISWNSGSIGYGDSVKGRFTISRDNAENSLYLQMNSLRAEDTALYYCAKVGRGGGYFDYWGQGTLVTVSS gave 4.70, nd, nd.
Variant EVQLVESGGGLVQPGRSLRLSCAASGFTFDDYAEHWVRQAPGKGLEWVSGISWNSGSIGYLDSVKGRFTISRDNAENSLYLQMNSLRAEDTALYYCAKVGRGGGYFDYWGQGTLVTVSS gave nd, nd, nd.
Variant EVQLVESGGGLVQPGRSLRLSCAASGFTFDDYAMHWVRQAPGKGLEWVSGISWNSGSIGYRDSVGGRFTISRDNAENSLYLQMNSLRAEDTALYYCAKVGRKGGYFDYWGQGTLVTVSS gave nd, nd, nd.
Variant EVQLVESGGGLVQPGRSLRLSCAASGFTFDDYAMHWVRQAPGKGLEWVSGISNNSKSIGYYDSVKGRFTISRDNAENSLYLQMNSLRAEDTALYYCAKVGRGGGYFDYWGQGTLVTVSS gave nd, 3.58, nd.
Variant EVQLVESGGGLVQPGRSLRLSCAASGFTFDDYAMHWVRQAPGKGLEWVSKISWNSGSIGYCDAVKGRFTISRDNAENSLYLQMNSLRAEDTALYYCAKVGRGGGYFDYWGQGTLVTVSS gave 4.95, nd, 5.41.
Variant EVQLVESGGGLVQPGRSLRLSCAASGFTFDDYAMHWVRQAPGKGLEWVSGISWESGSIGCLDSVKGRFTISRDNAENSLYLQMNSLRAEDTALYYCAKVGRGGGYFDYWGQGTLVTVSS gave 4.62, nd, nd.
Variant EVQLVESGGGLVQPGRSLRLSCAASGFTFDDYANHWVRQAPGKGLEWVSGISWNSGSIGYCDSVKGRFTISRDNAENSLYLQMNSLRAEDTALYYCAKVGRGGSYFDYWGQGTLVTVSS gave nd, nd, nd.
Variant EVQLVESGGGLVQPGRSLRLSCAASGFAFDDYAMHWVRQAPGKGLEWVSGVSWNSGSIGYQDSVKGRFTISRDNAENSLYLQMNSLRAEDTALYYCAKVGRGGGYFDYWGQGTLVTVSS gave 2.71, 2.51, 2.40.